We go through three compounds from patent publication EP3858345B1, “RADIOTRACER DERIVATIVES OF TRIMETHOPRIM FOR DIAGNOSTIC IMAGING” (dated 2026).

As a reminder, the half-life is the time needed for the level to fall by half in the phase considered. A low value points to fast loss.

Data set [1] is described as follows: [^11C]TMP urinary excretion, radio-thin layer chromatography and bladder signal.
In data set [2] the test system is DHFR tumors. The experiment in a line: [^11C]TMP biodistribution analysis, gamma counter.
The subject of data set [3] is HCT116 tumors. The experiment in a line: [^11C]TMP small animal PET/CT of DHFR and control tumor xenografts. The following applies: PET time activity curve, DHFR HCT116 cells compared to control cells.
Data set [4] relates to recombinant Ec DHFR protein. Nature of the data set: [^11C]TMP dot blot binding assay. The settings on record: Ec DHFR 100-4 µM on nitrocellulose, with or without cold TMP (10 µM).
Data set [5] concerns HEK293 cells. The experiment in a line: [^11C]TMP cell uptake study, HEK 293 control vs DHFR cells.
The test system of data set [6] is HCT116 cells. The experiment in a line: [^11C]TMP cell uptake study, HCT116 control vs DHFR cells. The following applies: at the time of assay.
In data set [7] the test system is Mouse breast cancer cells (4T1). Nature of the data set: Tumor imaging in the infection v inflammation v tumor model. The following applies: 4T1 cells subcutaneously in left shoulder 12h prior to imaging.
For data set [8], the system named is HCT116 DHFR cells. The experiment in a line: ^18F-FP-TMP uptake/specificity study in DHFR cells. The following applies: for 10 µM MTX Mean (uptake) / 10 µM TMP Mean (uptake) / DHFR Mean (uptake): HCT116 DHFR cells; for 10 µM MTX Mean (uptake): co-incubated with 10 µM MTX; for 10 µM TMP Mean (uptake): co-incubated with 10 µM TMP; for DHFR Mean (uptake): no competitor.

The subject of data set [9] is HCT116. Nature of the data set: ^18F-FP-TMP uptake/specificity study in control cells. The following applies: for 10 µM MTX Mean (uptake): co-incubated with 10 µM MTX; for 10 µM TMP Mean (uptake): co-incubated with 10 µM TMP; for Control Mean (uptake): no competitor.
Data set [10] deals with 293 DHFR cells. The experiment in a line: [^18F]FPTMP in vitro detection, serial dilutions of cells. The following applies: 2 hours incubation, gamma counter.
Data set [11] is described as follows: Half-life of the radiotracer.

Regarding `COc1cc(Cc2cnc(N)nc2N)cc(OC)c1O[11CH3]`, the “form excreted in the urine” value in data set [1] (radio-thin layer chromatography of mouse urine) is “predominantly as the parent compound”. Besides, in data set [1] (under anesthesia, rapid accumulation), the “dose accumulating in the bladder” value is given as “approximately 20%”. In addition, in data set [2] (90 minutes after injection), the liver uptake entry is “modest liver uptake” and the “uptake from the kidneys” value was “significant uptake”. Besides, the “DHFR to control signal induction” value in [2] (biodistribution 90 minutes after injection) is given as “over 3 fold”. For the same compound, the “uptake in the kidneys after oral TMP” value in [2] (mice pretreated with oral TMP) was “marked decreased in uptake”. Besides, the signal induction result in data set [3] is on record as “over 3 fold”. In [4], the “[^11C]TMP binding in dot blot” value is listed as “concentration-dependent specific cell uptake”. For the same compound, the signal induction entry in data set [5] (HEK293 DHFR cells vs control, at the time of assay) is “over 10 fold”. Further, in [5] (in vitro, DHFR cells, inhibitory concentration of MTX), the “effect of MTX co-treatment on uptake” value is listed as “no change in the dynamic range of uptake”. Moreover, the “effect of cold TMP co-treatment on uptake” value in data set [5] (in vitro, co-treatment with cold TMP) is listed as “blocked specific uptake”. Moreover, in [5] (in vitro, control cells), the “uptake in control cells” value is “little uptake”. Also, in data set [6], the induction is recorded as 3 fold.
On to `OC[C@H]1OC(O)[C@H](F)[C@@H](O)[C@@H]1O` (stereo partly shown), for which the “uptake in tumor cells” value in data set [7] was “presence”.
For the compound [^18F]Fluoropropyltrimethoprim, the “induction in DHFR cells compared to control cells” value in [8] (HCT116, 30 minutes) is “over 7 fold”. Also, the “signal induction in DHFR cells compared to control cells” value in [8] (HCT116, 120 minutes) was determined as 15 fold. The “10 µM MTX Mean (uptake)” value in data set [8] (5 min) amounted to 17.2; in [8] (30 min) it was 30.4; in [8] (60 min) it was 18.8; in data set [8] (120 min) it was 9.42; in data set [9] (5 min), 6.32; in data set [9] (30 min) it was 5.59. The “10 µM MTX Mean (uptake)” value was found to be 6.74 in data set [9] (60 min) and 8.62 in [9] (120 min). For the same compound, the “10 µM TMP Mean (uptake)” value in [8] (5 min) came out at 5.82; in data set [8] (30 min), 6.66; in data set [8] (60 min), 7.04; in [8] (120 min), 8.38; in [9] (5 min) it was 5.37; in data set [9] (30 min) it was 5.83. Moreover, the results for the “10 µM TMP Mean (uptake)” value in data set [9] (60 min) and in data set [9] (120 min) were 6.48 and 7.61, respectively. In addition, the “DHFR Mean (uptake)” value in data set [8] (5 min) is given as 14.3; in data set [8] (30 min), 47.2; in data set [8] (60 min), 87.1; in data set [8] (120 min), 134.6. For the same compound, in [7], the “uptake in tumor cells” value is reported as “no”. Also, the “Control Mean (uptake)” value in [9] (5 min) was determined as 5.11; in data set [9] (30 min), 6.58; in [9] (60 min), 7.37; in data set [9] (120 min) it was 8.4. Besides, the “in vitro detection sensitivity” value in data set [10] is “a few hundred DHFR cells”. Further, the half-life in data set [11] stood at 1.83 h.
